Literature values as cited in paper PMC5485989, “Role of Free Radicals and Biotransformation in Trichloronitrobenzene-Induced Nephrotoxicity In Vitro” (International Journal of Molecular Sciences, 2017).

Test system: Fisher 344 rats
Settings: cited from earlier work

## 2-chloronitrobenzene
Feeding to Fisher 344 rats
  Renal tumours and nephropathy: increased the number of renal cell adenomas in females and renal carcinomas in males and exacerbated age-related chronic progressive nephropathy in males
feeding, 2000 ppm level
  Death of male rats: 47 of 50
